The results in this text go back to patent US6440996B1, “Monomeric and dimeric heterocycles, and therapeutic uses thereof” (priority 1998, dated 2002).

Protein sequences, listed by entry. Tags and fused reporters are not part of them. Residues count along the entry.
UniProt Q9WTR4, 1-597: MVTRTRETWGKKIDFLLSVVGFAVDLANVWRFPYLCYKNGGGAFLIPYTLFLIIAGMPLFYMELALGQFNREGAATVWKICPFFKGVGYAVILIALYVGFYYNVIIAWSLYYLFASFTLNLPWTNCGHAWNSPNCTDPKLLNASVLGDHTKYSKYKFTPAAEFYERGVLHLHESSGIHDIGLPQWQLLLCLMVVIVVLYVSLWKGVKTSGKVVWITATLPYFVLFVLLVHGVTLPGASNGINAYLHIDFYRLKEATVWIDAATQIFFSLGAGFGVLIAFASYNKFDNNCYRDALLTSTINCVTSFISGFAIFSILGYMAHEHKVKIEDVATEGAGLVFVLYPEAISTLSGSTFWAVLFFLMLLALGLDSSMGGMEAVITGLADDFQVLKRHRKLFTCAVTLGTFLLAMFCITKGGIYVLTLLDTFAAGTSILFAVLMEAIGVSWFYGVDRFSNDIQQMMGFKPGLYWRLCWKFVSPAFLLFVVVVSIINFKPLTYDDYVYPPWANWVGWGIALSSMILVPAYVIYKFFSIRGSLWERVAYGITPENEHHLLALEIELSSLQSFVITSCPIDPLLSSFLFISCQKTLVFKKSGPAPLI

Structures are written as SMILES.

For the experiment, the target named is norepinephrine transporter (Rattus norvegicus, UniProt Q9WTR4). Briefly: Norepinephrine transporter binding (NET). As for the experimental part:
Determination of inhibitory binding potencies of analogues at dopamine, serotonin, and norepinephrine transporters are carried out using standard receptor binding assays which are known in the art.
C. Norepinephrine Transporter Binding (NET)
J. Med Chem., 36, 2886-2890.

One may read the IC50 as the concentration that gives 50% inhibition. Read a low IC50 as greater potency in that assay. Consider `COC(=O)[C@H]1[C@@H](OC(=O)c2ccccc2)C[C@@H]2CC[C@H]1N2C` [cocaine, reference compound], for which the IC50 was 4.43 µM.
